Values of other authors in article PMC6155625 (Molecules : A Journal of Synthetic Chemistry and Natural …, 2017).

Test system: CYP1A1
Conditions: ref 12 (Schwarz et al.); cited from earlier work

Hyperforin [HF]
type of inhibition of CYP1A1: competitive inhibitor
